Results taken from patent US7872027B2, “Low molecular weight Myc-max inhibitors” (University of Pittsburgh - Of the Commonwealth System of …, priority 2006, dated 2011).

Protein sequences, listed by entry. Tags and fused reporters are not part of them. Residues count along the entry.
UniProt P01106, 368-454 limits assumed: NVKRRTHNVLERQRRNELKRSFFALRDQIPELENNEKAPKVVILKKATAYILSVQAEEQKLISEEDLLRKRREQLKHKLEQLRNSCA

Tests used:
[1] = biological target: c-Myc353-439 (c-Myc bHLH-LZ monomer) (Homo sapiens, UniProt P01106); assay: fluorescence polarization binding / titration assay; details: for Kd: read-out: affinity for c-Myc353-439 (Kobs), 25° C., equimolar two-fold dilutions
Protocol: Fluorescence polarization assays. Samples of inhibitor at 25 μM concentration, in the absence and presence of an equimolar concentration of purified c-Myc353-439 peptide, were prepared in 1×PBS buffer (pH 7.4); 1 mM DTT; 5% DMSO. The samples were analyzed in a Photon Technology International QuantaMaster fluorimeter (Birmingham, N.J.) equipped with polymer sheet polarizers at an excitation wavelength of 380 nm and an emission wavelength of 468 nm. Alternative settings (ex: 470 nm; em: 600 nm), were employed for the compounds 7RH and 8RH, which have longer wavelength absorption and emission spectra. Each sample was analyzed in triplicate at 25° C. with sample specific G-factor determination. Titration experiments were performed with the same instrumental settings, temperature, and buffer conditions upon two-fold serial dilution of equimolar mixtures of inhibitor and c-Myc353-439. Reported data represent the average of three to five independent experiments. Data were fit to a quadratic equation derived from the thermodynamic expression of binding equilibrium:
[formula] where [C]0 represents the total concentration of inhibitor and of c-Myc353-439. The value of Kobs was determined from the experimental polarization data by fitting to Eq. 2 using KaleidaGraph (Synergy Software, Reading, Pa.) where pol0 is the polarization in the absence of binding and Δpol is the total change in polarization (Park S-H, Raines R T. Fluorescence polarization assay to quantify protein-protein interactions, Methods Mol Biol 2004; 261:161-165 (2004)).
10058-F4 and its analogs bind directly to c-Myc. Previous studies with 10058-F4 and other structurally unrelated index compounds had not specifically addressed the question of whether their binding required intact c-Myc-Max heterodimers or could occur on monomeric forms of the proteins. In order to address this, we took advantage of the fact that 10058-F4, and most of its analogs, are fluorescent and can depolarize an incident beam of light. Because the degree to which this occurs is partly a function of the molecule's rate of tumbling in solution, binding to either c-Myc or Max should result in a loss of fluorescence depolarization.
The binding affinities for selected active compounds were determined by titrating them with c-Myc353-439 and following the change in polarization of their intrinsic fluorescence. […] When excited with polarized light, they emit substantially depolarized light due to their rotation during the fluorescence lifetime. When the compounds are bound to c-Myc353-439, the polarization increases due to slower tumbling and this change can be used to calculate an observed binding constant. The affinity of parental 10058-F4 for c-Myc353-439 determined this way was […]±0.7 μM (FIGS. 6A-6D). […]

[2] = system: HL60 human promyelocytic leukemia cells; assay: HL60 cell growth inhibition (trypan blue cell counts)
Protocol: Note that all structures shown herein are drawn in their Z-isoform and some bonds have been standardized. IC50's here, as well as below for in FIGS. 2 and 3, were calculated based upon dose-response profiles on day 5 following the addition of each compound.
HL60 human promyelocytic leukemia cells were grown in RPMI medium supplemented with 10% fetal calf serum, 100 U/ml penicillin G, and 100 μg/ml streptomycin (all from Mediatech, Inc., Herndon, Va.). Rat fibroblast lines were grown under similar conditions in Dulbecco's modified minimal essential medium. To determine the effects of Myc-Max compounds on HL60 cell growth, logarithmically growing cells (>90% viability) were resuspended in fresh medium. Four (4) ml (a total of 16,000 cells) were then seeded into 6-well plates in the presence of the indicated amount of Myc-Max compound. In all cases, 10058-F4 was included as a reference compound. Daily cell counts were performed manually in triplicate on a hemacytometer using trypan blue exclusion. Viabilities exceeded 85% throughout the course of the experiment.
Each compound was initially tested for its ability to inhibit the growth of the HL60 human promyelocytic leukemia cell line, which expresses high levels of c-Myc as a result of gene amplification (Park S—H, et al. Methods Mol Biol 2004; 261:161-165 (2004)). […]

c-Myc-Max(S) heterodimer = c-Myc-Max(S) heterodimer (Homo sapiens, UniProt P01106); assay: electrophoretic mobility shift assay (EMSA), E-box DNA binding; details: for inhibition of E-box DNA binding by c-Myc-Max(S): 60 nM each protein, 10 nM oligonucleotide
Protocol: Equivalent amounts of nuclear extracts were incubated with the indicated concentrations of the compounds depicted in FIGS. 1-3. Following precipitation of the complexes with an anti-Max antibody, the total amount of associated c-Myc was detected by immunoblotting (top panel). As a control, the lower portion of the blot was probed with an anti-Max antibody (bottom panel). FIGS. 4B, 4C and 4D show EMSAs results. Recombinant c-Myc353-439 (which encodes the complete bHLH-ZIP dimerization domain) and full-length Max(S) were purified to homogeneity from E. coli and used at a final concentration of 60 nM in the presence of the indicated concentration of compound.
Electrophoretic mobility shift Assays (EMSAs). Experiments were performed on 8% polyacrylamide:bis-acrylamide (80:1) gels in 0.5×TBE. Binding reactions were prepared in a buffer consisting of 1×PBS (pH 7.3); 1 mM EDTA; 0.1% NP40; 5% glycerol; 1 mM dithiothreitol; and 0.4 mg/mL BSA. A 22 base-pair E-box-containing double-stranded DNA oligonucleotide labeled on one strand with hexachlorofluoresceine (HEX) consisted of the following sequence:
and was synthesized by Integrated DNA Technologies Inc (Coralville, Iowa). The oligonucleotide was used at 10 nM concentration in all reactions, which also contained 60 nM each of purified c-Myc bHLH-LZ, Max(S), and the indicated amount of each compound. Proteins were first incubated for 90 min at 25° C., followed by addition of the oligonucleotide and an additional 15 minutes incubation before loading on a running gel. Gels were run at 20° C. and scanned on a BioRad FX molecular imager (BioRad, Hercules, Calif.). Data were analyzed with BioRad Quantity One software.
The second method used to gauge the effects of 10058-F4 and its analogs on c-Myc-Max complexes relied on the use of a simple, three component electrophoretic mobility shift assay (EMSA). […] The ability of the resultant heterodimer to bind a double-stranded target oligonucleotide containing a consensus E-box motif was then assessed by PAGE. […]

| SMILES | affinity for c-Myc353-439 compared with 10058-F4 [1] | Kd [1] | activity in HL60 cells compared with 10058-F4 ([2]; 10058-F4 in parallel) | inhibition of E-box DNA binding by c-Myc-Max(S) (c-Myc-Max(S) heterodimer) | inhibition of E-box DNA binding by c-Myc-Max(S) (c-Myc-Max(S) heterodimer; listed as 12RH-NCN1) | IC50 ([2]; read-out: ID50, HL60 cell growth, dose-response profiles on day 5 following addition of compound) | activity in EMSA or co-IP assays compared with 10058-F4 (c-Myc-Max(S) heterodimer; EMSA or co-IP assays) |
| --- | --- | --- | --- | --- | --- | --- | --- |
| O=C1/C(=C/c2ccc(Cl)cc2)SC(=S)N1CN1CCCCC1 | tightest binding compound | 600 nM | activities comparable to that of 10058-F4 | quite effective at eliminating E-box binding | among the most effective | – | – |
| CC(C)c1ccc(/C=C2\SC(=S)NC2=O)cc1 | bind better than 10058-F4 | 1000 nM | – | – | – | 36000 nM | appeared superior to 10058-F4 |
